# Apparent affinities of Ab-95 variants for a coronavirus HR2 peptide

Source: Engelhart et al. 2022 (doi:10.1038/s41597-022-01779-4), MIT Lincoln Laboratory and A-Alpha Bio; data file from the FLAb repository.

The target is the same throughout: PDVDLGDISGINAS, from the HR2 region of SARS-CoV-2 spike.

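The parent was found by panning a naive human phage display library on the peptide. Variants in AAYL52 differ from the parent at up to three CDR positions; double and triple changes were sampled at random. AlphaSeq pools MATa yeast showing the antibodies with MATalpha yeast showing the peptide. Mating (16 h, 30 °C) was followed by selection of diploids and sequencing of their barcodes. The ratio of observed to expected reads was calibrated, replicate by replicate, on BCL2-family standards whose Kd was known from biolayer interferometry. The assay was run in three technical replicates.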

The variants keep the heavy chain, the linker and the frameworks of Ab-95 (scFv order VH, a 15-residue (Gly4Ser)3 linker, VL).
VH: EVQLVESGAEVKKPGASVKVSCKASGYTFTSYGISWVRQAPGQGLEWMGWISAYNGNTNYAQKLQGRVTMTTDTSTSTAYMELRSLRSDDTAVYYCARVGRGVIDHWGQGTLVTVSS
VL: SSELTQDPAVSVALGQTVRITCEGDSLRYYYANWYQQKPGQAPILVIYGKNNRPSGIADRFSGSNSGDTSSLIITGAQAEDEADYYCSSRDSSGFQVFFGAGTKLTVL

Substitutions are numbered in sequence along the VL above, starting at 1 (not Kabat). All variants listed here change D91 of the VL, counted from its first residue. Affinities are written as log10 Kd with Kd in nM; a lower number is a better binder. A mean of the replicates is given; it leaves out those without a signal. Where no diploid with the target was found in that replicate, the entry reads "ND": below detection, most likely a poor binder, though not proof of it. Nonspecific signal, from three strains lacking the peptide, appeared in 28% of pairings of library AAYL52, centred on 3.91 (5% of these signals below 2.90); values are not corrected for it.

* S88G D91L F95I: 3.73, 4.64, 2.46 (mean 3.61)
* R53T D91T G94L: 3.00, 3.46, 4.10 (mean 3.52)
* N51I P54G D91C: 3.75, 4.38, 4.42 (mean 4.18)
* S55E D91V: ND, ND, ND
* N33V S88H D91Q: ND, ND, ND
* S26C R90H D91Q: 4.61, 6.07, 3.86 (mean 4.85)
* R28E S89Q D91C: 2.52, 2.95, 3.23 (mean 2.90)
* S26P S89D D91M: 3.61, 3.76, ND (mean 3.69)
* G49A D91E Q96T: 4.74, ND, 3.71 (mean 4.22)
* S26A N33C D91Y: 5.48, 5.15, 4.30 (mean 4.97)
* Y31W G49P D91K: ND, 4.02, ND
* N52Q D91H S92F: 2.56, 2.67, 2.27 (mean 2.50)
* G49K D91T S92A: 5.13, 5.66, ND (mean 5.40)
* G49S N52G D91A: 3.52, 3.21, 3.51 (mean 3.41)
* D25S Y30C D91Q: 3.50, 3.92, ND (mean 3.71)
* D91K: 2.66, 3.19, 2.45 (mean 2.77)
* L27Q R53A D91M: 5.60, ND, 4.46 (mean 5.03)
* K50S R53A D91W: ND, ND, ND
* R53M D91L F95D: ND, 4.08, ND
* R53M D91V F95D: 4.06, 3.56, 4.22 (mean 3.95)
* G24F K50Y D91P: 3.93, 2.97, ND (mean 3.45)
* Y31D R90P D91T: ND, ND, 4.50
* N51I D91W F98C: ND, ND, ND
* S89R D91F: 2.59, 2.15, 2.17 (mean 2.30)
* G49W S89I D91V: 4.51, ND, 4.73 (mean 4.62)
* Y29L Y31W D91H: ND, ND, ND
* D25S S88A D91V: 2.28, 1.88, 1.95 (mean 2.04)
* Y29V S89D D91C: 5.43, 5.58, ND (mean 5.51)
* S26Y Y29P D91I: 1.68, 1.48, 0.71 (mean 1.29)
* D25K D91L: ND, 4.03, 2.91 (mean 3.47)
* R28C A32W D91C: ND, ND, 4.35
* Y29N Y30I D91M: 2.21, 2.18, 2.08 (mean 2.16)
* Y31W N33S D91Q: 3.32, 3.23, 2.62 (mean 3.06)
* D25V S89Y D91H: 2.67, 2.59, 2.94 (mean 2.74)
* Y30H N52Y D91G: 2.77, 2.49, 2.13 (mean 2.46)
* N51P D91V F98I: 3.06, 3.40, 4.42 (mean 3.63)
* N33I S88Y D91G: ND, 4.55, 3.74 (mean 4.14)
* G24Q P54Q D91P: 4.29, ND, ND
* N52H D91Q S92N: 2.59, ND, ND
* R28I N33F D91F: ND, 3.61, 3.58 (mean 3.60)
* Y30E D91K F95S: 3.53, 5.68, ND (mean 4.60)
* D91C G94W V97W: 2.31, 2.78, 1.85 (mean 2.31)
* G24M A32P D91T: 2.65, 2.89, 2.63 (mean 2.73)
* Y30W D91E S93P: 2.79, 2.67, 3.76 (mean 3.07)
* R53Y P54N D91Q: ND, ND, ND
* E23K D91W S93W: 4.17, 2.78, ND (mean 3.47)
* E23A D91I S92M: 3.40, ND, 3.25 (mean 3.32)
* L27A Y30G D91W: 3.05, ND, ND
* E23Y N51A D91R: 5.49, 4.08, ND (mean 4.79)
* D25V N52F D91Y: 2.81, 2.87, 2.32 (mean 2.67)
* L27G Y29K D91Q: ND, ND, ND

The 7 strongest on average among those seen in every replicate, once more:

- S26Y Y29P D91I -> 1.68, 1.48, 0.71 (mean 1.29)
- D25S S88A D91V -> 2.28, 1.88, 1.95 (mean 2.04)
- Y29N Y30I D91M -> 2.21, 2.18, 2.08 (mean 2.16)
- S89R D91F -> 2.59, 2.15, 2.17 (mean 2.30)
- D91C G94W V97W -> 2.31, 2.78, 1.85 (mean 2.31)
- Y30H N52Y D91G -> 2.77, 2.49, 2.13 (mean 2.46)
- N52Q D91H S92F -> 2.56, 2.67, 2.27 (mean 2.50)